Earlier results as cited in article PMC8741604 (Translational Oncology, 2022).

Target: PD-L1
Details: read-out: KD of PD-1 for PD-L1; natural partner PD-1; cited from earlier work

For “PD-1: natural binding partner of PD-L1, positive control”, the Kd is given as roughly 8 µM.
